Laboratory results: publication PMC2861366 (Biochemistry, 2010)

Amino acid sequences for entries named in this document (tags omitted). A change or cut given only in a name is not applied to a line headed by its entry.
UniProt P17888: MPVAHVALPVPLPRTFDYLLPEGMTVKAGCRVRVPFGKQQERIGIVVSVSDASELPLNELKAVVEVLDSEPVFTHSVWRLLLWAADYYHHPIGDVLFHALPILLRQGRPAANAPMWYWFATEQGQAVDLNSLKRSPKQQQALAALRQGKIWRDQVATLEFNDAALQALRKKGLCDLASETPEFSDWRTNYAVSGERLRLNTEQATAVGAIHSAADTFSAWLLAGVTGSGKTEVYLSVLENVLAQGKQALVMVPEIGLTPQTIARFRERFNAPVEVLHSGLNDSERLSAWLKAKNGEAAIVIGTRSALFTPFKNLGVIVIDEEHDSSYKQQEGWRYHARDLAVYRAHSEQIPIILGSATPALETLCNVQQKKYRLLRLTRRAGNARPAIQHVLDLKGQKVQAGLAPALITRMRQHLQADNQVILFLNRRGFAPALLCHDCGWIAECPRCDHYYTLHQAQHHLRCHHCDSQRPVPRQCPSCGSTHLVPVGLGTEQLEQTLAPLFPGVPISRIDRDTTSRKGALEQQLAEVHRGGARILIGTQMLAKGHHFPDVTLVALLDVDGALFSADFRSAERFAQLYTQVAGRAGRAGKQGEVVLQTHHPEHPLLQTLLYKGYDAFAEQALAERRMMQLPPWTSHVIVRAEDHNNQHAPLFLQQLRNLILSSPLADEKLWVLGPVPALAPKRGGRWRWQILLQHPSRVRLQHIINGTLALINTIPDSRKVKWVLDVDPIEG

B1: E. coli single stranded DNA binding (SSB) protein (natural protein, UniProt P0AGE0 1-178, looked up)
chain: MASRGVNKVILVGNLGQDPEVRYMPNGGAVANITLATSESWRDKATGEMKEQTEWHRVVLFGKLAEVASEYLRKGSQVYIEGQLRTRKWTDQSGQDRYTTEVVVNVGGTMQMLGGRQGGGAPAGGNIGGGQPQGGWGQPQQPQGGNQFSGGAQSRPQQSAPAAPSNEPPMDFDDDIPF
B2: χ subunit of DNA polymerase III holoenzyme (natural protein, E. coli, UniProt P28905 1-147, looked up)
chain: MKNATFYLLDNDTTVDGLSAVEQLVCEIAAERWRSGKRVLIACEDEKQAYRLDEALWARPAESFVPHNLAGEGPRGGAPVEIAWPQKRSSSRRDILISLRTSFADFATAFTEVVDFVPYEDSLKQLARERYKAYRVAGFNLNTATWK

Key:
Assay in all cases: ITC
E. coli PriA helicase [1] = biological target: T1, E. coli PriA helicase (E. coli, UniProt P17888)
E. coli PriA helicase [2] = biological target: T1, E. coli PriA helicase; remark: listed apart in the source
E. coli PriA helicase [3] = biological target: T1, E. coli PriA helicase; remark: listed apart in the source
E. coli PriA helicase [4] = biological target: T1, E. coli PriA helicase; remark: listed apart in the source
[5] = biological target: B2
E. coli PriA helicase [6] = biological target: T1, E. coli PriA helicase; remark: listed apart in the source
[7] = biological target: B2; remark: listed apart in the source
E. coli PriA helicase [8] = biological target: T1, E. coli PriA helicase; remark: listed apart in the source
E. coli PriA helicase [9] = biological target: T1, E. coli PriA helicase; remark: listed apart in the source
[10] = biological target: B1
[11] = biological target: B1; remark: listed apart in the source
[12] = biological target: B1; remark: listed apart in the source
[13] = biological target: B1; remark: listed apart in the source
[14] = biological target: B1; remark: listed apart in the source

Q: For B1, which Ka (E. coli PriA helicase [1]) is on record?
A: The Ka was 1.9e+06 M⁻¹.

Q: And the dH (E. coli PriA helicase [1])?
A: Its dH is -8.6 ± 0.3 kcal/mol.

Q: What about the “stoichiometry N” value (E. coli PriA helicase [1]) of the same binder?
A: The value was 3.8 ± 0.4.

Q: What about the Ka (E. coli PriA helicase [2]) of the same binder?
A: The Ka was 390000 M⁻¹.

Q: What about the dH (E. coli PriA helicase [2]) of the same binder?
A: Its dH is -8.1 ± 1 kcal/mol.

Q: What about the Ka (E. coli PriA helicase [3]) of the same binder?
A: Its Ka is 3.2e+06 M⁻¹ and 1.1e+06 M⁻¹.

Q: And the dH (E. coli PriA helicase [3])?
A: The dH was -16.6 kcal/mol and -16.9 kcal/mol.

Q: What about the “stoichiometry N” value (E. coli PriA helicase [3]) of the same binder?
A: The value was 2.2 and 2.

Q: What about the Ka (E. coli PriA helicase [4]) of the same binder?
A: The Ka was 3.7e+06 M⁻¹.

Q: What about the dH (E. coli PriA helicase [4]) of the same binder?
A: The dH was -18.1 ± 2.6 kcal/mol.

Q: And the “stoichiometry N” value (E. coli PriA helicase [4])?
A: The value was 3.2 and ~4 and 4.

Q: And the dH [5]?
A: The dH was -8.7 ± 0.3 kcal/mol.

Q: And the “stoichiometry N” value [5]?
A: The value was 4.5 ± 0.2.

Q: What about the Ka (E. coli PriA helicase [6]) of the same binder?
A: The Ka was 2e+06 to 5e+06 M⁻¹.

Q: What about the dH [7] of the same binder?
A: The dH was -8.9 ± 0.2 kcal/mol.

Q: And the “stoichiometry N” value [7]?
A: The value was 4.3 ± 0.2.

Q: What about the Ka (E. coli PriA helicase [8]) of the same binder?
A: Its Ka is 450000 M⁻¹.

Q: What about the dH (E. coli PriA helicase [8]) of the same binder?
A: The dH was -7.5 ± 0.5 kcal/mol.

Q: And the Ka (E. coli PriA helicase [9])?
A: The Ka was 4e+06 M⁻¹.

Q: And the dH (E. coli PriA helicase [9])?
A: The dH was -18.3 ± 2 kcal/mol.

Q: What about the “stoichiometry N” value (E. coli PriA helicase [9]) of the same binder?
A: The value was 3 ± 0.3.

Q: What does the source list for B2?
A: Ka [10]: 540000 M⁻¹; dH [10]: -9.5 ± 1 kcal/mol; stoichiometry N [10]: 3.9 ± 0.3; Ka [11]: 300000 M⁻¹; dH [11]: -6.1 ± 1.1 kcal/mol; stoichiometry N [11]: 3.9 ± 0.4; Ka [12]: 7.6e+06 M⁻¹; Ka [13]: 5.5e+06 M⁻¹; stoichiometry N [13]: 3.5 ± 0.1; Ka [14]: 3.8e+06 M⁻¹

Several values for one entry are separate records, joined by “and”; a condition that tells them apart may be missing. Equal entries are not always repeated. Where two headings read alike, the source gives them in different places.
